Test results reported in patent US20250197442A1, “Peptide Synthesis in Aqueous Solution” (priority 2023, published 2025).

Fmoc-Phe content of the clear aqueous solution obtained (aqueous solution with 10.80% DMSO, Tween 80 to Fmoc-Phe approximately 8:1 (w/w)) [%] | Fmoc-Gly content of the clear aqueous solution obtained (aqueous solution with 7.85% DMSO, Tween 80 to Fmoc-Gly approximately 4:1 (w/w)) [%] | Structure (SMILES)
0.72 | – | O=C(N[C@@H](Cc1ccccc1)C(=O)O)OCC1c2ccccc2-c2ccccc21 [Fmoc-Phe, Fmoc-Phenylalanine]
– | 1.07 | O=C(O)CNC(=O)OCC1c2ccccc2-c2ccccc21 [Fmoc-Gly, Fmoc-Glycine]
